Tested on: NIH:OVCAR-5 cells
Experiment: PDT efficacy in xenograft animal model of intra-peritoneal epithelial ovarian carcinoma
Assay type: in vivo, athymic Swiss female nude mice
Conditions: 20 J light i.p. 24 hours later, sacrifice day 21, FIG. 1
Description: PICs of the present invention comprising the tumoricidal antibody C225 indirectly linked to the photosensitizer CMA (referred to here as “C225-CMA”), were evaluated for efficacy in PDT using a xenograft animal model of intra-peritoneal epithelial ovarian carcinoma. Results obtained in this model system are reasonably predictive of treatment efficacy for the human condition. The following groups were analyzed:
Group 1: No Treatment; Group 2: Treatment with indirectly linked C225-CMA and activation with high a high light dose (high fluence rate); Group 3: Treatment with indirectly linked C225-CMA and activation with a low light dose (low fluence rate).
To test the effect of the PICs of the present invention in vivo, a known animal model system was utilized (Molpus et al., 1996a). This xenograft model of intra-peritoneal epithelial ovarian carcinoma has been noted to be desirable for measurement of the effects of PDT (Molpus et al., 1996a). This model manifests tumor derived from human ovarian carcinoma cells with all of the inherent biological properties of human disease. As has been previously described, the model is characterized, as in human patients, by diffuse solid tumor, ascites, parenchymal invasion, lymph-vascular space invasion, and neovascularization (Molpus et al., 1996a). […]

Substance: C225-CMA
- tumor burden as compared to the no treatment group (Group 2: 1 mg/kg PIC on day 10 and 20 after tumor cell injection, high fluence rate): reduced tumor burden
- tumor burden as compared to the no treatment group (Group 3: 1 mg/kg PIC on day 10 and 20 after tumor cell injection, low fluence rate, p<0.02): significantly reduced tumor burden

From patent publication US20070020272A1, “Indirectly linked photosensitizer immunoconjugates, processes for the production thereof and methods of use thereof” (priority 2003, published 2007)
